Test results: patent US20230322928A1, “TREATMENT METHODS USING CTLA-4 AND PD-1 BISPECIFIC ANTIBODIES” (MedImmune, LLC, priority 2022, published 2023)

Amino acid sequences for entries named in this document (tags omitted). Residues count along the entry.
UniProt Q15116, 25-288: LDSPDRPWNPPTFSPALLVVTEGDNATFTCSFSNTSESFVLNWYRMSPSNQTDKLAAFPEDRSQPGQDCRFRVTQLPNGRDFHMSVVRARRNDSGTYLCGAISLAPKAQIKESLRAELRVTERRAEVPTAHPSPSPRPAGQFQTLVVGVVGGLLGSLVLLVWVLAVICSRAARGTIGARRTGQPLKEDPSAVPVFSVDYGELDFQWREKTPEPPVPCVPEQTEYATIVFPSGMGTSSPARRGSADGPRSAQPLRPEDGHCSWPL

What was measured:
PD-1 = PD-1 (Homo sapiens, UniProt Q15116); assay: PD-1 receptor occupancy on CD4 T cells by flow cytometry; conditions: doses of >225 mg
T cell clones = assay: Expanded T cell clones by T cell receptor sequencing (TCRseq); conditions: Monotherapy setting

How did the “Sustained peripheral PD-1 receptor occupancy” value (PD-1) turn out when “MEDI5752: anti-PD-1/CTLA-4 bispecific antibody; light chain SEQ ID NO:1 and heavy chain SEQ ID NO:2 (PD-1), light chain SEQ ID NO:3 and heavy chain SEQ ID NO:4 (CTLA-4)” was run?
The value was greater than 90%.

And the T cell expansion (T cell clones)?
The T cell expansion was “plateauing at 500/750 mg and above”.
